# scFv variants of Ab-95 (light chain) against a SARS-CoV-2 spike peptide

All variants were tested on one target, the spike HR2 peptide PDVDLGDISGINAS (SARS-CoV-2).

Parent scFv Ab-95: VH joined to VL by a 15-residue (Gly4Ser)3 linker. Changes lie in the light chain CDRs alone.
VH: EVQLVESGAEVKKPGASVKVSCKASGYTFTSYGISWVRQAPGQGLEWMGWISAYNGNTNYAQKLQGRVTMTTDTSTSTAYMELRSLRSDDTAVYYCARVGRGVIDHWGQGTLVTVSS
VL: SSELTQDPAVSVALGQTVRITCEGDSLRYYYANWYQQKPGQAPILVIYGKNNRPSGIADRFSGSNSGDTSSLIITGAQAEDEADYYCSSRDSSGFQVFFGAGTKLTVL

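The parent was found by panning a naive human phage display library on the peptide. Library AAYL52 holds single substitutions and randomly drawn double and triple substitutions in the CDRs. The scFvs were displayed on barcoded MATa yeast, the peptide on MATalpha yeast. The frequency of each diploid, read from paired DNA barcodes, reflects how well the two displayed proteins bind. Read counts were normalised to the haploid input and turned into Kd by a linear fit to BCL2-family pairs of known affinity, for each replicate. The assay was run in three technical replicates.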

Substitutions are numbered in sequence along the VL above, starting at 1 (not Kabat). Scale: log10 of Kd in nM, estimated from mating counts; low values are strong binders. An entry "ND" has no value in the source: the pair was not observed among the diploids in that replicate. This suggests poor binding but is not conclusive. For reference, the parent read 2.31 as the reference entry and 2.25 as a member of this library. Empty control strains, which show no peptide, gave a signal in 28% of pairings with library AAYL52; the median was 3.91 and 95% of these signals were weaker than 2.90. No background was subtracted. The control count says in how many pairings with the empty strains this scFv gave a signal.

With S26V A32D S88P the result was ND, 5.21, 3.48 (controls 2 of 9).
With S26Q N52P D91Y the result was ND, ND, ND (controls 2 of 9).
With G24Q S89Q F95P the result was ND, 3.81, ND (controls 3 of 9).
With G24W P54G S93E the result was ND, ND, ND (controls 1 of 9).
With E23H N33C F98G the result was 2.81, 5.05, 3.10 (controls 1 of 9).
With D25I R90F the result was 2.72, 3.21, 3.33 (controls 3 of 9).
With N52C R53H D91C the result was 3.29, 3.85, 3.26 (controls 5 of 9).
With G24F N33L the result was 4.67, 3.90, ND (controls 2 of 9).
With N33R G49N V97W the result was 4.68, ND, ND (controls 2 of 9).
With Y31W G94K V97Q the result was 3.19, 2.88, 2.20 (controls 0 of 9).
With D25V Y29W P54G the result was 3.54, 3.42, 2.85 (controls 0 of 9).
With K50Y S92H V97Q the result was 3.24, 4.49, 3.71 (controls 2 of 9).
With D25G G49I N52S the result was ND, ND, ND (controls 3 of 9).
With K50Y N51G P54M the result was 2.32, 2.97, 3.81 (controls 2 of 9).
With G24N Y29F Y30H the result was 2.75, 2.95, 2.27 (controls 3 of 9).
With D91P S93G F98D the result was 3.61, 3.33, 3.35 (controls 3 of 9).
With Y31V R53N V97G the result was 5.13, ND, ND (controls 2 of 9).
With D25A S55K V97G the result was ND, ND, ND (controls 0 of 9).
With S89M F95E F98K the result was ND, 2.68, ND (controls 2 of 9).
With N51Q P54D S93F the result was 3.82, ND, ND (controls 1 of 9).
With S26E N52I G94T the result was 4.27, 3.68, ND (controls 5 of 9).
With S93L F98Q the result was 5.59, 4.47, 3.54 (controls 2 of 9).
With R28V N33R G94K the result was ND, ND, ND (controls 2 of 9).
With E23D A32I S88W the result was 3.43, ND, ND (controls 1 of 9).
With G24E L27A R90S the result was ND, 3.85, ND (controls 5 of 9).
With D25G G49F Q96P the result was 4.31, ND, ND (controls 2 of 9).
With E23D Y29A the result was 2.66, 2.17, 2.49 (controls 1 of 9).
With R90S S93Q V97E the result was 4.12, ND, 4.90 (controls 6 of 9).
With Y29W R53E G94Y the result was ND, ND, ND (controls 1 of 9).
With G24I A32Y R53C the result was 5.31, 5.12, ND (controls 3 of 9).
With Y29P R53K S92V the result was 3.72, 3.66, 4.19 (controls 5 of 9).
With Y31N S55G S88L the result was 1.86, 1.78, 1.09 (controls 1 of 9).
With Y30V N33Q R53P the result was 3.91, ND, 4.03 (controls 3 of 9).
With N51Y P54N S55M the result was 3.75, ND, ND (controls 0 of 9).
With N52A V97H the result was ND, 4.16, ND (controls 3 of 9).
With G24F S93E G94K the result was ND, ND, ND (controls 1 of 9).

Repeated from above, the 2 best binders with a signal in all replicates:

| changes | replicates, log10 nM | empty controls |
|---|---|---|
| Y31N S55G S88L | 1.86, 1.78, 1.09 | 1 of 9 |
| E23D Y29A | 2.66, 2.17, 2.49 | 1 of 9 |

Source: Engelhart et al. 2022 (doi:10.1038/s41597-022-01779-4), MIT Lincoln Laboratory and A-Alpha Bio; data file from the FLAb repository.